## Apparent affinities of Ab-91 variants for a coronavirus HR2 peptide

Reference: Engelhart et al. 2022, doi:10.1038/s41597-022-01779-4. File: FLAb, binding data.

Target peptide (SARS-CoV-2 spike, HR2 region): PDVDLGDISGINAS

The variants keep the light chain, the linker and the frameworks of Ab-91 (scFv order VL, a (GGGGS)3 linker, VH).
VL: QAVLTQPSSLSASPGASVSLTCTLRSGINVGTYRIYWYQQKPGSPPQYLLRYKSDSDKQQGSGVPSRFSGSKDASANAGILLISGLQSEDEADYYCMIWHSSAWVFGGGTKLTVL
VH: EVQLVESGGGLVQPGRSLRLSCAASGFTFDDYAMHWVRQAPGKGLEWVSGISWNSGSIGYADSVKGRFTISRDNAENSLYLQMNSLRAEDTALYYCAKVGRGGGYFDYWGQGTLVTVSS

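Phage display of a naive human antibody library on the peptide gave the parent. AAYL51 was designed without a model: most single CDR substitutions and a random sample of double and triple ones. The assay is AlphaSeq: two haploid yeast populations carry antibody and antigen on their surface. Binding brings cells together so that they mate, and sequencing counts the barcode pairs among the diploids. Scores were corrected for input abundance and mapped to Kd with protein pairs of known affinity run in the same pool. Each pool was mated in three replicate cultures.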

Variants are written as CDR1, CDR2 and CDR3 of the heavy chain (limits as in the source). Parent: GFTFDDYAMH, GISWNSGSIGYADSVK, VGRGGGYFDY. Affinities are written as log10 Kd with Kd in nM; a lower number is a better binder. Averages over replicates are reported, and they cover detected replicates only. "ND" means that the variant was in the library but no mating with the target was seen in that replicate; the authors take this as a sign of poor binding, and no number exists. Parent in this assay: reference entry 1.86, copy in this library 0.88. Nonspecific signal, from three strains lacking the peptide, appeared in 21% of pairings of library AAYL51, centred on 4.54 (5% of these signals below 3.26); values are not corrected for it. Also given: how often the same scFv was detected with the empty control strains, with their mean in brackets.

CDR-H1,CDR-H2,CDR-H3,log10 Kd (nM) by replicate,"log10 Kd (nM), mean",empty controls
GFTFDDYAMH,GISWNDGSIGRADSVK,VPRGGGYFDY,ND / ND / ND,ND,0/9
GFTFDDYAMH,WISWNSGSIGGADSVK,VGGGGGYFDY,ND / ND / ND,ND,0/9
GFTFDDYAMH,GISWNSGSIGYADWAK,VGRGGGYFCY,4.71 / ND / ND,4.71,1/9 (3.60)
GLTFKDYAMH,GISWNSGSIGNADSVK,VGRGGGYFDY,ND / 4.91 / 4.89,4.90,2/9 (5.41)
GFTFDDYAMH,GSSWNSGSIGYADSVK,VMRGGGYKDY,4.47 / ND / ND,4.47,1/9 (3.73)
GFTFDDYAMH,GQSWNCGSIGYADSVK,VGRGGGYFDA,5.21 / ND / ND,5.21,3/9 (3.79)
GFTFDDAAMH,GISWNSGPISYADSVK,VGRGGGYFDY,ND / ND / 4.96,4.96,5/9 (4.02)
GFTFDDYAMH,SISWNSGSIGYPDSVK,VGRGGGYFDY,4.68 / ND / ND,4.68,0/9
LFTFDDYAMH,GIWGNSGSIGYADSVK,VGRGGGYFDY,ND / ND / ND,ND,0/9
GGTFDDYAMH,GISWNSGSIGFADSVK,VGRSGGYFDY,4.82 / 4.35 / 5.99,5.05,7/9 (4.95)
GLTFDDYAMH,MISWNSGSIGYTDSVK,VGRGGGYFDY,ND / ND / 3.79,3.79,0/9
GFTFDRYAMH,GSSWISGSIGYADSVK,VGRGGGYFDY,4.76 / 5.28 / 4.42,4.82,5/9 (4.26)
GFTFDDYAMH,GISWNSGSIGYADSVK,VGHGGGYFYR,ND / ND / ND,ND,1/9 (3.35)
GFTFDDGAMH,KISWNSGSIGYFDSVK,VGRGGGYFDY,ND / ND / ND,ND,2/9 (3.03)
GFTFDWYAMH,GISWNHGSIGYADSVK,VGRGGGWFDY,5.23 / 5.66 / ND,5.45,2/9 (2.99)
GFTFDDYAMH,GISWNSPVIGYADSVK,VGRGGGFFDY,3.05 / ND / ND,3.05,1/9 (2.86)
GFTFDDYAMH,GISWNSGSIGYADSVK,VGRTGGYFDY,ND / ND / ND,ND,5/9 (4.66)
GFTFDDYAMH,GISWNSGSMGYADSVK,VGRGPFYFDY,3.92 / 4.45 / ND,4.19,1/9 (3.44)
GFTFDDYAHK,GISSNSGSIGYADSVK,VGRGGGYFDY,5.19 / 5.39 / ND,5.29,4/9 (4.76)
GFTFDDWAMH,GCSWNSGSIGYADSVK,VERGGGYFDY,ND / ND / ND,ND,0/9
GNTFDDYAMH,GISWNSGSIGLADSVK,VGRGGGYFDY,ND / 2.09 / ND,2.09,0/9
GFTFDDYAMH,GISWNSGSIGYADVVK,VGRGGMYFDY,ND / 5.84 / ND,5.84,1/9 (3.34)
GFTFDDYAMH,GISWNSGSIGKAQSVK,VGRGGGIFDY,ND / ND / 4.48,4.48,4/9 (4.17)
GFTFDDYAMH,GISWNSGSILGADSVK,VGRGGGIFDY,ND / ND / ND,ND,2/9 (3.70)
GRTFDDYAMH,GISWNDGSIGYFDSVK,VGRGGGYFDY,ND / ND / ND,ND,1/9 (4.10)
GFTFYDYAMH,GISWNSGSIGYADSVK,VGRGGGYSDY,4.23 / ND / ND,4.23,2/9 (4.14)
GFTFDDYAMH,GISWNSGSIGYAVSMK,VGRGGGYFDY,ND / ND / ND,ND,0/9
GFTFDDYAMH,GISWNRGSIGYADSVK,VGRGGMYADY,5.35 / ND / ND,5.35,2/9 (4.30)
GFTFDKYAMH,GIDWNSGSIGYADSLK,VGRGGGYFDY,5.41 / 4.60 / ND,5.00,2/9 (5.42)
GFTFDDYAMH,GISWWSGSIGYADSVK,VGRGDGYFDG,2.85 / ND / ND,2.85,0/9
GFTFDDYAMH,GISWCSGSIGYADSVK,VGNGGGYFDY,ND / ND / 4.26,4.26,3/9 (4.36)
GFTFNDCAMH,GISWNSGSIGYADSVK,VGRTGGYFDY,4.25 / ND / ND,4.25,5/9 (4.28)
GFTFDDYAMK,GISWNSGSIGYVFSVK,VGRGGGYFDY,ND / ND / ND,ND,0/9
GFTFDDYAMH,PISWNCGSIGYADYVK,VGRGGGYFDY,ND / ND / 5.54,5.54,2/9 (5.27)
GFTFDDYAMH,GISWNSGSIGYADSVK,VGRGRCYFHY,3.33 / 3.50 / 3.13,3.32,3/9 (4.79)
GFPFDDYAMH,GISWNSCLIGYADSVK,VGRGGGYFDY,ND / ND / ND,ND,2/9 (4.84)
GFTFDDYAMH,GISWNSGSIGYADSVK,RGRGDDYFDY,ND / ND / ND,ND,3/9 (4.15)
GFTFDDTAMH,GIIWNSGSIGYADSTK,VGRGGGYFDY,4.88 / 6.94 / 4.72,5.51,7/9 (4.81)
GFTFDYYAMH,GISWNSGSIGYADWVK,VGRGGGYHDY,4.14 / ND / ND,4.14,3/9 (4.08)
GFMFDDYAMH,GISWNSSSIGYADSVK,VGRGGGYFFY,ND / ND / ND,ND,0/9
GFTFDPYAMH,GISWNSGSIGYADSFK,VGRGGGYFKY,ND / 4.90 / ND,4.90,1/9 (4.08)
GFTFDDYAMH,GISANSGSIGYGDSVK,VGRGGEYFDY,4.20 / 4.99 / 5.08,4.76,8/9 (4.32)
GFTFDDYAMH,GISWNSGLIGLADSVK,VTRGGGYFDY,1.51 / 2.21 / 0.76,1.49,0/9

Top 6 of the variants detected in all replicates, tightest first:

CDR-H1	CDR-H2	CDR-H3	log10 Kd (nM) by replicate	log10 Kd (nM), mean	empty controls
GFTFDDYAMH	GISWNSGLIGLADSVK	VTRGGGYFDY	1.51 / 2.21 / 0.76	1.49	0/9
GFTFDDYAMH	GISWNSGSIGYADSVK	VGRGRCYFHY	3.33 / 3.50 / 3.13	3.32	3/9 (4.79)
GFTFDDYAMH	GISANSGSIGYGDSVK	VGRGGEYFDY	4.20 / 4.99 / 5.08	4.76	8/9 (4.32)
GFTFDRYAMH	GSSWISGSIGYADSVK	VGRGGGYFDY	4.76 / 5.28 / 4.42	4.82	5/9 (4.26)
GGTFDDYAMH	GISWNSGSIGFADSVK	VGRSGGYFDY	4.82 / 4.35 / 5.99	5.05	7/9 (4.95)
GFTFDDTAMH	GIIWNSGSIGYADSTK	VGRGGGYFDY	4.88 / 6.94 / 4.72	5.51	7/9 (4.81)